Consider 24 molecules from patent US11111214B2 (priority 2013, dated 2021).

The target in data set [1] is recombinant human mu (MOR) opioid receptor (Homo sapiens, UniProt P35372). The data set is described as follows: Radioligand competition binding assay, mu opioid receptor (MOR). To be noted: for Mu receptor % inhibition at single concentration, % inhibition @ 10 μM: 10 μM test compound, [3H]naloxone 4 nM, inhibition of specific binding; for IC50: read-out: Mu receptor binding IC50, CHO-K1 membranes, [3H]naloxone. On the technique in general: Loss of bound radioactivity is the signal in a displacement assay; it reports binding, not function.

Data set [2] deals with KOR (kappa opioid receptor) (Homo sapiens, UniProt P41145). To be noted: read-out: Kappa receptor activity EC50 cAMP; inhibition of cAMP accumulation, forskolin 20 μM, 45 min. (Changes in cAMP serve as a functional read-out for many G protein-coupled receptors.)
The target in data set [3] is recombinant human kappa (KOR) opioid receptor (Homo sapiens, UniProt P41145). The data set is described as follows: Radioligand competition binding assay, kappa opioid receptor (KOR). To be noted: for IC50: read-out: Kappa receptor binding IC50, [3H]diprenorphine 1 nM, CHO-K1 membranes, compounds tested as HCl salts; for Ki: read-out: Kappa receptor binding Ki, Cheng Prusoff correction with experimental Kd of radioligand.

The nature of data set [4]: Hepatic clearance using rat cryopreserved hepatocytes. Conditions: 500 nM; for In vitro Hepatocyte Clearance, Rat CL: predicted in vivo hepatic clearance by well-stirred model.
Data set [5] is described as follows: Hepatic clearance using human cryopreserved hepatocytes. To be noted: 500 nM; for In vitro Hepatocyte Clearance, Human CL: predicted in vivo hepatic clearance by well-stirred model.

The EC50 is the concentration needed to bring the measured effect to its halfway point. As a reminder, the IC50 is the concentration at which inhibition is half-maximal. By Ki is commonly meant a dissociation constant, usually derived from enzyme kinetics or from competition with a known ligand.

Take `CN(C(=O)Cc1ccc(Cl)c(Cl)c1)[C@H](CN1CCC(F)(F)C1)c1ccccc1.Cl`: the “Mu receptor % inhibition at single concentration, % inhibition @ 10 μM” value (shortened to “Mu receptor % inhibition”) in data set [1] stood at 55.6%.

On to `CN(C(=O)Cc1ccc(Cl)c(Cl)c1)[C@H](CN)c1ccccc1.Cl`, for which the “Mu receptor % inhibition” value in data set [1] amounted to 95.6%.

`CN(C(=O)Cc1ccc(Cl)c(Cl)c1)[C@H](CN)c1ccccc1`: the half-maximal effective concentration (EC50) in data set [2] was found to be 16.4 nM. The 50% inhibitory concentration (IC50) in data set [1] was determined as 178 nM. In data set [3], the IC50 was 59.8 nM and the Ki turned out to be 7.8 nM.

Take `COC(C(=O)N(C)[C@H](CN1CCCC1)c1ccccc1)c1ccccc1` (some centres unmarked): the EC50 in data set [2] came to 0.52 nM. Moreover, in data set [3], the IC50 came out at 12.2 nM and the Ki amounted to 2.82 nM.

Take `CN(C(=O)Cc1ccc(Cl)c(Cl)c1)[C@H](CN1CCCC1)c1ccccc1` [ICI-199,441, reference compound]: the EC50 in data set [2] was 0.05 nM. Also, in data set [1], the “Mu receptor % inhibition” value was 96.3% and the half-maximal inhibitory concentration (IC50) was determined as 137 nM. In data set [3], the IC50 was 0.35 nM and the Ki turned out to be 0.08 nM.

Turning to `CN(C(=O)Cc1ccc(Cl)c(Cl)c1)[C@H](CN1CC[C@H](O)C1)c1cccc(N)c1`, the EC50 in data set [2] was 0.02 nM. For the same molecule, the “Mu receptor % inhibition” value in data set [1] is 101%. In addition, in data set [3], the IC50 stood at 0.23 nM and the inhibition constant Ki came out at 0.05 nM.

`CN(C(=O)Cc1ccc(Cl)c(Cl)c1)[C@H](CN1CCC(F)(F)C1)c1ccccc1`: the EC50 in data set [2] turned out to be 2.34 nM. Besides, in data set [3], the IC50 was 34.6 nM and the Ki was 7.98 nM.

Turning to `CN(C(=O)Cc1ccc(Cl)c(Cl)c1)[C@H](CN1C[C@@H](O)[C@H](O)C1)c1ccccc1.Cl`, the “Mu receptor % inhibition” value in data set [1] worked out at 78.0%.

Take `CN(C(=O)Cc1ccc(Cl)c(Cl)c1)[C@H](CN1C[C@@H](O)[C@H](O)C1)c1ccccc1`: the concentration giving a half-maximal response (EC50) in data set [2] came out at 0.18 nM. In data set [3], the IC50 amounted to 1.08 nM and the inhibition constant (Ki) stood at 0.25 nM.

As to `CN(C(=O)Cc1ccccc1[N+](=O)[O-])[C@H](CN1CC[C@H](O)C1)c1ccccc1`, the concentration giving a half-maximal response (EC50) in data set [2] was 0.47 nM. Also, in data set [1], the “Mu receptor % inhibition” value is on record as 67.4%. For the same molecule, in data set [3], the 50% inhibitory concentration (IC50) amounted to 2.9 nM and the Ki turned out to be 0.67 nM.

Consider `CN(C(=O)Cc1ccc(Cl)nc1)[C@H](CN1CCCC1)c1ccccc1`, for which the EC50 in data set [2] came out at 0.92 nM. In data set [1], the “Mu receptor % inhibition” value is listed as 73.7%. In data set [3], the half-maximal inhibitory concentration (IC50) was 3.95 nM and the Ki was determined as 0.91 nM.

Take `CN(C(=O)C(c1ccccc1)c1ccccc1)[C@H](CN1CC[C@H](O)C1)c1ccccc1` [Asimadoline, asimadoline, reference compound]: in data set [2], the EC50 amounted to 0.41 nM. Further, in data set [1], the “Mu receptor % inhibition” value was determined as 46.3% and the IC50 stood at 11600 nM. Besides, in data set [3], the IC50 was found to be 11.5 nM and the inhibitory constant (Ki) is 2.6 nM.

Regarding `CN(C(=O)Cc1ccc(F)c(F)c1)[C@H](CN1CCCC1)c1ccccc1.Cl`, in data set [1], the “Mu receptor % inhibition” value is given as 75.0%.

For `COC(C(=O)N(C)[C@H](CN1CCCC1)c1ccccc1)c1ccccc1.Cl` (some centres unmarked), the “Mu receptor % inhibition” value in data set [1] amounted to 88%.

`CN(C(=O)Cc1ccc(O)cc1)[C@H](CN1CCCC1)c1ccccc1`: in data set [2], the EC50 came to 13.1 nM. For the same molecule, the “Mu receptor % inhibition” value in data set [1] was 64.8%. In addition, in data set [3], the IC50 came out at 66.4 nM and the Ki was 15.3 nM.

With `CN(C(=O)Cc1ccc(C(F)(F)F)cc1)[C@H](CN1CC[C@H](O)C1)c1ccccc1`, the concentration giving a half-maximal response (EC50) in data set [2] was 0.009 nM. For the same molecule, in data set [3], the IC50 turned out to be 0.16 nM and the Ki turned out to be 0.04 nM.

For the molecule `CN(C(=O)Cc1ccccn1)[C@H](CN1CCCC1)c1ccccc1`, the EC50 in data set [2] worked out at 30.1 nM. Moreover, in data set [1], the “Mu receptor % inhibition” value is 50.4%. For the same molecule, in data set [3], the IC50 came out at 48.5 nM and the Ki turned out to be 11.2 nM.

As for `CN(C(=O)Cc1ccc(F)cc1F)[C@H](CN1CCCC1)c1ccccc1`, in data set [2], the 50% effective concentration (EC50) was 0.93 nM. Also, the “Mu receptor % inhibition” value in data set [1] was determined as 67.7%. Besides, in data set [3], the IC50 amounted to 4.86 nM and the Ki was 1.12 nM.

Turning to `CN(C(=O)Cc1ccc(F)c(F)c1)[C@H](CN1CCCC1)c1ccccc1`, in data set [2], the half-maximal effective concentration (EC50) stood at 0.09 nM. In addition, in data set [3], the half-maximal inhibitory concentration (IC50) worked out at 2.28 nM and the inhibitory constant (Ki) was determined as 0.3 nM.

In the case of `CN(C(=O)Cc1ccc(Cl)c(Cl)c1)[C@H](CN1CC[C@H](O)C1)c1ccccc1`, the EC50 in data set [2] was determined as 0.03 nM. In data set [1], the “Mu receptor % inhibition” value amounted to 99.8% and the IC50 was found to be 10.6 nM. Moreover, in data set [4], the “In vitro Hepatocyte Clearance, Rat % hep Blood flow” value is listed as 85.0% and the “In vitro Hepatocyte Clearance, Rat CL” value is recorded as 51.0 mL/min/kg. In data set [5], the “In vitro Hepatocyte Clearance, Human % hep Blood flow” value was determined as 89.0% and the “In vitro Hepatocyte Clearance, Human CL” value is reported as 20.7 mL/min/kg. For the same molecule, in data set [3], the IC50 amounted to 0.13 nM and the Ki was determined as 0.03 nM.

In the case of `COCCO[C@H]1CCN(C[C@H](c2ccccc2)N(C)C(=O)Cc2ccc(Cl)c(Cl)c2)C1`, the 50% effective concentration (EC50) in data set [2] is 1.2 nM. For the same molecule, in data set [3], the concentration for half-maximal inhibition (IC50) stood at 7.5 nM and the Ki turned out to be 1.7 nM.

With `CN(C(=O)Cc1ccc(C(F)(F)F)cc1)[C@H](CN1CC[C@H](O)C1)c1ccccc1.Cl`, the “Mu receptor % inhibition” value in data set [1] is listed as 101.4%.

Turning to `CN(C(=O)Cc1ccccc1N)[C@H](CN1CC[C@H](O)C1)c1ccccc1`, the half-maximal effective concentration (EC50) in data set [2] stood at 1.12 nM. In data set [1], the “Mu receptor % inhibition” value was 47.3%. Moreover, in data set [3], the half-maximal inhibitory concentration (IC50) came out at 10.5 nM and the Ki came to 2.43 nM.

On to `COCCO[C@H]1CCN(C[C@H](c2ccccc2)N(C)C(=O)Cc2ccc(Cl)c(Cl)c2)C1.Cl`, for which, in data set [1], the “Mu receptor % inhibition” value is listed as 79.1%. In addition, in data set [4], the “In vitro Hepatocyte Clearance, Rat % hep Blood flow” value stood at 83.0% and the “In vitro Hepatocyte Clearance, Rat CL” value is reported as 50.1 mL/min/kg. In data set [5], the “In vitro Hepatocyte Clearance, Human % hep Blood flow” value came out at 82.0% and the “In vitro Hepatocyte Clearance, Human CL” value is given as 19.0 mL/min/kg.
